This is an account of results in publication PMC10972748 (Nature, 2024).

The Kd is the equilibrium constant for the complex coming apart. Low values mean a tighter complex, high ones a looser complex.

The target in the assay is T1, SPSB3–ELOBC heterotrimeric complex (SPSB3 amino acids 83–326 with elongin B and elongin C) (human | , UniProt Q6PJ21 83-326; Q15370 1-118; Q15369 1-112).
T1 construct: SPSB3, human, core structured part, amino acids 83-326; elongin B (ELOB); elongin C (ELOC); also called substrate receptor complex; source: E. coli BL21 (DE3), purified (HisTrap, ULP1 cleavage, SEC); not shown: His6, N-terminal, cleaved; SUMO, N-terminal, cleaved; copies: + +
Briefly: BLI; GatorPrime, anti-His probes; cGAS or cGAS mutants (50 μg/ml) immobilised; SPSB3-ELOBC or its mutant in solution at various concentrations; PBS; 25 °C; 1:1 binding model. The settings on record: both partners purified. On the technique in general: In BLI a coated tip is dipped into the sample, and binding shifts an interference pattern.

B1: His–Halo-tagged cGAS (limits not told for the experiment) (natural protein, human, UniProt Q8N884 1-522, looked up)
chain: MQPWHGKAMQRASEAGATAPKASARNARGAPMDPTESPAAPEAALPKAGKFGPARKSGSRQKKSAPDTQERPPVRATGARAKKAPQRAQDTQPSDATSAPGAEGLEPPAAREPALSRAGSCRQRGARCSTKPRPPPGPWDVPSPGLPVSAPILVRRDAAPGASKLRAVLEKLKLSRDDISTAAGMVKGVVDHLLLRLKCDSAFRGVGLLNTGSYYEHVKISAPNEFDVMFKLEVPRIQLEEYSNTRAYYFVKFKRNPKENPLSQFLEGEILSASKMLSKFRKIIKEEINDIKDTDVIMKRKRGGSPAVTLLISEKISVDITLALESKSSWPASTQEGLRIQNWLSAKVRKQLRLKPFYLVPKHAKEGNGFQEETWRLSFSHIEKEILNNHGKSKTCCENKEEKCCRKDCLKLMKYLLEQLKERFKDKKHLDKFSSYHVKTAFFHVCTQNPQDSQWDRKDLGLCFDNCVTYFLQCLRTEKLENYFIPEFNLFSSNLIDKRSKEFLTKQIEYERNNEFPVFDEF
notes: cyclic GMP-AMP synthase (cGAS), human; also called Halo-cGAS; WT cGAS; source: E. coli BL21 (DE3), purified (HisTrap, SEC)
Take B1: binding was put at a Kd of 352 nM. This lies in the sub-micromolar range.
